# Measured affinities in a library of Ab-91 heavy chain variants

Reference: Engelhart et al. 2022, doi:10.1038/s41597-022-01779-4. File: FLAb, binding data.

All variants were tested on one target, the spike HR2 peptide PDVDLGDISGINAS (SARS-CoV-2).

Parent scFv Ab-91: VL joined to VH by a 15-residue (Gly4Ser)3 linker. Changes lie in the heavy chain CDRs alone.
VL: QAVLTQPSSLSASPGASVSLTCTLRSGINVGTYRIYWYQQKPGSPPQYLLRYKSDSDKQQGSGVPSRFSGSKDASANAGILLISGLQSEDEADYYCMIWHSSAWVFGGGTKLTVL
VH: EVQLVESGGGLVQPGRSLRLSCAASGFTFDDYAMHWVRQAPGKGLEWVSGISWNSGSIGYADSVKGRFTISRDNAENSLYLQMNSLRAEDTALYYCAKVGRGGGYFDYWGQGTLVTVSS

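Phage display of a naive human antibody library on the peptide gave the parent. In library AAYL51, one, two or three CDR residues were substituted; doubles and triples were drawn at random. The scFvs were displayed on barcoded MATa yeast, the peptide on MATalpha yeast. The frequency of each diploid, read from paired DNA barcodes, reflects how well the two displayed proteins bind. Scores were corrected for input abundance and mapped to Kd with protein pairs of known affinity run in the same pool. Each pool was mated in three replicate cultures.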

Each variant is given by its three heavy chain CDRs, as the data file delimits them; those of the parent are GFTFDDYAMH, GISWNSGSIGYADSVK, VGRGGGYFDY. The read-out is the apparent dissociation constant on a log10 scale (nM): the lower, the stronger. Where no diploid with the target was found in that replicate, the entry reads "nd": below detection, most likely a poor binder, though not proof of it. Parent in this assay: reference entry 1.86, copy in this library 0.88. As a blank, each scFv also met three strains without target: over library AAYL51, 21% of these pairings were detected, typically at 4.54 and seldom below 3.26. The control count says in how many pairings with the empty strains this scFv gave a signal, with their mean in brackets.

| CDR-H1 | CDR-H2 | CDR-H3 | log10 Kd (nM) by replicate | signal with controls |
|---|---|---|---|---|
| GFTFDDNAMH | GISWNSGSSGYADSVK | VGRGGGYFDE | 3.22 / 2.72 / 3.04 | 0 of 9 |
| GFTFDDYTMQ | GISWNSGSIGYADSVK | VGRGGNYFDY | 5.16 / nd / nd | 1 of 9 (4.37) |
| GFTFDDYAMH | GISWKSGSIGYAVSVK | VGRGGGHFDY | nd / nd / nd | 1 of 9 (3.30) |
| GFTFDDYAMH | GISWNSGSIGYIDSVK | VGRGGGYFDY | nd / nd / nd | 1 of 9 (3.51) |
| GGTFDDYAMH | GISYNSGSILYADSVK | VGRGGGYFDY | nd / nd / nd | 3 of 9 (5.02) |
| GFTFDDYAMH | GISVNSGSIGYAASVK | VGRGGGYFDY | 2.37 / 2.84 / 2.75 | 2 of 9 (3.90) |
| GFTFDDYANH | GIHWNSGSIGYADSVK | VGRGGGYFDT | 4.48 / 3.68 / 4.75 | 4 of 9 (4.55) |
| GFTFDDYAMH | GISWHSGSIGQADSVK | VGRGGGYFDT | nd / nd / nd | 0 of 9 |
| GFTFDDGADH | GISWNSGSIGYADSPK | VGRGGGYFDY | 6.44 / 5.04 / 5.44 | 2 of 9 (3.89) |
| GFTFDDYAMH | GISWNSGSIGYADSVK | VGDWGGYFDY | nd / 5.71 / nd | 5 of 9 (4.46) |
| KFTDDDYFMH | GISWNSGSIGYADSVK | VGRGGGYFDY | 4.16 / 5.39 / nd | 4 of 9 (4.54) |
| GGCFDDYAMH | GISWNSGSIGYADSVK | EGRGGGYFDY | 1.15 / 1.01 / 0.31 | 0 of 9 |
| GFTFDDYAYH | GISWNSASIGYADSVK | VGRGGGYFDF | 4.42 / 5.30 / nd | 4 of 9 (4.52) |
| GKTADDYAMH | GISWNSGSIGYADSVK | VIRGGGYFDY | 6.33 / nd / nd | 3 of 9 (5.61) |
| MFTFDDYAMH | GITWNSGSIGYADSVK | VGRGGGYQDY | nd / 3.38 / nd | 1 of 9 (3.89) |
| GFTFDDYAMG | GISWNSGSIGYADSVV | VGRGGHYFDY | nd / nd / nd | 2 of 9 (4.69) |
| GFTFDDYAMH | GISWNSGSIGYADSVK | VYRKGGYFDY | nd / nd / 5.35 | 4 of 9 (4.99) |
| GFTFDDYAMH | GISWNSGSIGQADSVK | VGRGGGYFQY | nd / nd / nd | 1 of 9 (2.09) |
| GFTFYDYAMH | GISKNSGSIGYADSVF | VGRGGGYFDY | nd / 5.64 / nd | 2 of 9 (4.67) |
| GFTFSDYAMH | GISENSGSIGYADSVK | VGRGGIYFDY | nd / nd / nd | 1 of 9 (3.52) |
| GFTFDDYAMH | GISWNWGSIGYADSFK | VGRGGGYEDY | nd / 5.55 / nd | 1 of 9 (4.30) |
| GFTFDDYAMH | GISWNSGSIGYADSVK | AVRWGGYFDY | 5.00 / 5.66 / 5.03 | 8 of 9 (5.09) |
| GFTFDDYAEA | GISWNSGNIGYADSVK | VGRGGGYFDY | nd / nd / 4.98 | 5 of 9 (4.34) |
| GFTNDDYAMH | GISWNSGSIGYADSVK | VGRGGGYFMY | 3.91 / nd / nd | 0 of 9 |
| GFTFDDLAMH | GISWNSGSIGYAFSAK | VGRGGGYFDY | 2.91 / nd / nd | 3 of 9 (3.66) |
| GNTFDDYAMR | GISWCSGSIGYADSVK | VGRGGGYFDY | 3.65 / nd / nd | 3 of 9 (3.49) |
| GFTFDDYAMH | GISWNSGSIGYSDSRK | VGRGGGYFMY | 5.21 / 4.81 / nd | 8 of 9 (4.86) |
| GFTFDDYAMH | GISWNSGSIGYADSVK | EGRGGGPFMY | 4.30 / nd / nd | 4 of 9 (4.42) |
| GFTFDIYATH | GISWNSGSIGYADSVK | VGRGGGNFDY | nd / nd / nd | 2 of 9 (4.94) |
| GFTFDDYAMH | GISCNWGSIGCADSVK | VGRGGGYFDY | 4.77 / 5.18 / nd | 6 of 9 (4.84) |
| GFTFDDYRMH | MISWNSGSIGYADSVK | VGRGGGYFKY | nd / nd / nd | 1 of 9 (4.66) |
| GFTFDDYAMH | GISWNSGSIGYADSVK | DGRGGGYFDY | 6.00 / 6.01 / nd | 6 of 9 (5.93) |
| GFTFDDYAMH | GTSWVSGSIGYADSVK | VGRGGGYFYY | nd / nd / nd | 0 of 9 |
| GFTFFDYAMH | GIKWNSGSIGYTDSVK | VGRGGGYFDY | nd / nd / nd | 0 of 9 |
| GFTFDDYAMH | GISWNWGSIGYHDSYK | VGRGGGYFDY | nd / nd / nd | 0 of 9 |
| GFTFDDYAMH | GISWNSGSIVYKDSVK | VGRGGGKFDY | nd / nd / nd | 0 of 9 |
| GSTFADYAMH | GISWNSGSIGWADSVK | VGRGGGYFDY | nd / nd / nd | 1 of 9 (3.73) |

For reference, 5 entries of the list once more:

CDR-H1,CDR-H2,CDR-H3,log10 Kd (nM) by replicate,signal with controls
GFTFSDYAMH,GISENSGSIGYADSVK,VGRGGIYFDY,nd / nd / nd,1 of 9 (3.52)
GFTFDDYRMH,MISWNSGSIGYADSVK,VGRGGGYFKY,nd / nd / nd,1 of 9 (4.66)
GFTFDIYATH,GISWNSGSIGYADSVK,VGRGGGNFDY,nd / nd / nd,2 of 9 (4.94)
GFTFDDYAMH,GISVNSGSIGYAASVK,VGRGGGYFDY,2.37 / 2.84 / 2.75,2 of 9 (3.90)
GFTFDDYAMH,GISWNWGSIGYHDSYK,VGRGGGYFDY,nd / nd / nd,0 of 9